Experimental data from paper PMC4893628, “Chalcone-based Selective Inhibitors of a C4 Plant Key Enzyme as Novel Potential Herbicides” (Scientific Reports, 2016).

Key:
[1] = biological target: T1, wild-type C4 PEPC from F. trinervia (Flaveria trinervia, UniProt P30694); test: Isothermal titration calorimetry, wild-type C4 PEPC; type: binding; details: ITC, in the presence of 17 mM aspartate; listed as Okanin
T1 construct: the full-length ppcA gene of PEPC from F. trinervia (EMBL-Bank X61304); made in house; host or cells: Escherichia coli BL21(DE3)
T1 sequence (P30694 1-966): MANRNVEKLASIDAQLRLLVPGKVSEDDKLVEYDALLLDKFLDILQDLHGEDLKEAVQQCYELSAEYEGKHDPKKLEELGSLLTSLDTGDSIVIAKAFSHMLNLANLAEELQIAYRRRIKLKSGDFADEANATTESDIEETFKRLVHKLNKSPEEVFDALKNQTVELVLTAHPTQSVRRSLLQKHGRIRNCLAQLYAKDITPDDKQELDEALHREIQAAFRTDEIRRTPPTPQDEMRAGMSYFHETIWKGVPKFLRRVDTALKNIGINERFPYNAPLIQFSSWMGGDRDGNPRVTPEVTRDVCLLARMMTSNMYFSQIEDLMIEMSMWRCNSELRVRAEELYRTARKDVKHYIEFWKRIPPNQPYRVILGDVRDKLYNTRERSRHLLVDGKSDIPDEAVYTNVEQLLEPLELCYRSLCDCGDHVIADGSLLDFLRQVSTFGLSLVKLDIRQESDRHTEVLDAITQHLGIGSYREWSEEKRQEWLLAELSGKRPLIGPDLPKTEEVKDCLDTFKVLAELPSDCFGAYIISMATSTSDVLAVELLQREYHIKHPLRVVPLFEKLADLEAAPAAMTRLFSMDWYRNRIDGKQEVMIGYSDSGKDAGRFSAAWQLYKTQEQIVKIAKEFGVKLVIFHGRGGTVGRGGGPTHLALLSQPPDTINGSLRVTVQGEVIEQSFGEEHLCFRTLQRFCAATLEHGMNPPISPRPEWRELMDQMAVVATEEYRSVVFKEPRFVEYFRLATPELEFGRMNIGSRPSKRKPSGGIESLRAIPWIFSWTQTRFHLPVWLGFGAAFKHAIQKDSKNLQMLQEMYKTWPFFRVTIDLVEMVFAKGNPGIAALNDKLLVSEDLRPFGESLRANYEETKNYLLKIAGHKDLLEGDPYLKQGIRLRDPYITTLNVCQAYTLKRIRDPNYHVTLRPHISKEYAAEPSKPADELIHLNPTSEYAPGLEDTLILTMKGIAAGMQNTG
Protocol: The binding affinities between small molecule compounds and PEPC enzymes were measured using a MicroCal iTC200 calorimeter (GE Healthcare). 18 injections (2 μl each) of 200 μM compound were injected into a sample cell containing 20 uM PEPC at 25 °C. The buffer of the compounds and the enzymes contained 50 mM Tris/HCl pH 7.5, 150 mM NaCl, 10 mM MgCl2. The data were analyzed with one-site-binding fitting using Origin software (MicroCal Inc.) to calculate the dissociation constant (Kd) of the small molecule inhibitors.

A. retroflexus = test: Hyperspectral imaging (ARI, PRI), A. retroflexus; type: in vivo, Amaranthus retroflexus; details: two days after treatment, 3rd leaf, six replicates
F. trinervia PEPC = biological target: T2, F. trinervia PEPC (Flaveria trinervia, UniProt P30694); type: biochemical; details: C4 PEPC over C3 isoform
T2 construct: the full-length ppcA gene of PEPC from F. trinervia (EMBL-Bank X61304); made in house; host or cells: Escherichia coli BL21(DE3)
T2 sequence (P30694 1-966): T1 sequence (P30694 1-966)
Protocol: The IC50 values of small molecule compounds on F. pringlei and F. trinervia PEPCs were determined using PEPC coupled spectrophotometric assay. The amount of NADH oxidized by NADH-malate dehydrogenase was measured by the decrease in absorbance at 340 nm in a Beckman DU-800 spectrophotometer, thus the value is in proportion to the corresponding substrate conversion of the enzyme. […] The reactions were started by adding two folds of the Km value of PEP for each enzyme. The data were analyzed using GraFit (Erithacus Software, UK).

human telomerase = biological target: human telomerase; parameters: method as in PMID 15588081; details: higher; cited from earlier work

Structure (SMILES): O=C(/C=C/c1ccc(O)c(O)c1)c1ccc(O)c(O)c1O [Compound 12, 2′,3′,4′,3,4-Pentahydroxy-chalcone]
- Kd / binding [1]: not detected
- anthocyanin reflectance index (ARI) (A. retroflexus): significantly increased
- photochemical reflectance index (PRI) (A. retroflexus): significantly reduced
- Selectivity C4/C3 (F. trinervia PEPC): 45 fold
- Selectivity C4/C3 (F. trinervia PEPC; listed as 2′,3′,4′,3,4-Pentahydroxychalcone): 15–45 fold
- IC50 on human telomerase relative to IC50 for inhibition of C4 PEPC (human telomerase): ~ 10 fold

Like-named read-outs stand apart in the source and are kept apart here.
